Results reported in US20240239801A1, “PYRIMIDO[5,4,D]PYRIMIDINE COMPOUNDS, COMPOSITIONS COMPRISING THEM AND USES THEREOF” (Université de Montréal, priority 2021, published 2024).

Legend:
Assay in all cases: Proliferation inhibition, CellTiter-Glo
IPC298 = details: read-out: IPC298 Prolif. EC50; Table D-1; 3 days
Protocol: (§1) All cancer cell lines (A375, A101D, A2058, RKO, HT29 SK-MEL 30, IPC298, HepG2, HCT-116, Lovo, SW620, SW480, NCI-H358, NCI-H2122, Calu-6, NCIH2087, NCIH1755, NCIH1666 and Mewo) were obtained from ATCC and cultured in RPMI-1640 medium (Gibco) supplemented with 5% heat inactivated fetal bovine serum (FBS, Wisent) at 37° C. under 5% CO2. Cells were maintained in T175 flasks (Greiner). They were passaged by removing the culture medium, washing once in 10 mL of room temperature Phosphate Buffered Saline (PBS; Wisent) and incubating at 37° C. with 2 mL of 0.05% Trypsin (Thermo-Fisher). Trypsin was then inactivated by adding complete growth medium and the cells were then replated in a T175 culture dish at the appropriate dilution. All cell lines were routinely tested for mycoplasma contamination. Tissue type and mutational status of each cell line can be found in Table B.
(§2) CellTiter-Glo® viability analysis was conducted on cells plated in […] of complete RPMI-1640 growth medium in 96-well flat-bottomed white opaque plates (Greiner or Corning) at a density indicated in Table E (for each CCL, number of cells plated per well of a 96-well plate to perform the CellTiter-Glo® cell viability assay). The cell density in cells/cm^2 would correspond to cell number divided by the area of one well of a 96-well plate (0.32 cm^2). Cells were maintained overnight at 37° C. under 5% CO2 before treatment with compounds' dilution series for 3 days.
(§3) In a dilution series 100 μL/well of test substance dilution prepared in complete RPMI-1640 growth media was added to the cells plated initially in 100 μL of growth media. The dilution series is selected so that ten concentrations cover a range from 30 μM or 10 μM to […]. If necessary (as in the case of A375 cells, which were more sensitive to the compounds) the initial concentration of 10 μM is lowered to 1 μM and further dilution is carried out accordingly. The final concentration of DMSO in the assay is set to 0.5%.
(§4) After 3 days of incubation, the growth media were removed by aspiration and 60 μL of diluted CellTiter-Glo® reagent (10 μL CellTiter-Glo® reagent+50 μL of PBS) was added to each well. Cells were allowed to lyse and to equilibrate in CellTiter-Glo® reagent by 5 min incubation on a plate shaker followed by 10 min incubation at room temperature. Luminescence signals were then acquired on a Synergy Neo2 plate reader (Biotek).
(§5) The effect of each compound dilution on the proliferation of cancer cell lines was expressed in % inhibition and calculated as follows. An internal 100% inhibition control (1 μM of trametinib; cat. No. HY-10999; MedChem Express; CAS No. 871700-17-3) was included in each plate and used as a measure of CellTiter-Glo® signal background. The value obtained for trametinib was subtracted from each data point. The average of DMSO (vehicle) controls (set as 0% inhibition) was established and used to calculate % inhibition:
(§6) The ability of each compound to inhibit proliferation was expressed as a EC50 value obtained by plotting the effect values for each data point of a dilution series and fitting the obtained curves using a log(agonist) versus response−variable slope (four parameters) function using GraphPadPrism (V7.0) or Dotmatics Screening Ultra platform.

Lovo = details: read-out: Lovo Prolif. EC50; Table D-2; 3 days
Protocol: as §1, §2, §3, §4, §5, §6

Mewo = details: read-out: Mewo Prolif. EC50; Table D-2; 3 days
Protocol: as §1, §2, §3, §4, §5, §6

NCI-H358 = details: read-out: NCI-H358 Prolif. EC50; Table D-2; 3 days
Protocol: as §1, §2, §3, §4, §5, §6

NCIH1755 = details: read-out: NCIH1755 Prolif. EC50; Table D-2; 3 days
Protocol: as §1, §2, §3, §4, §5, §6

NCIH2087 = details: read-out: NCIH2087 Prolif. EC50; Table D-2; 3 days
Protocol: as §1, §2, §3, §4, §5, §6

SW620 = details: read-out: SW620 Prolif. EC50; Table D-2; 3 days
Protocol: as §1, §2, §3, §4, §5, §6

EC50 (Lovo): < 0.3 µM
EC50 (NCI-H358): < 0.3 µM
EC50 (SW620): < 0.3 µM
Compound: O=S(=O)(Nc1ccc(F)c(Nc2ncnc3cnc(-n4cnc5c(N6CCC(O)(C(F)(F)F)CC6)cccc54)nc23)c1F)c1cccc(Cl)c1Cl
EC50 (IPC298): < 0.3 µM
EC50 (Mewo): < 0.3 µM
EC50 (NCIH1755): < 0.3 µM
EC50 (NCIH2087): < 0.3 µM
